The test system of this assay is SA13/JFH1C3405G-A3696G (5a/JFH1) infected Huh7.5 cells. The assay is described as follows: Treatment of 5a/JFH1 infected cell cultures with interferon-α. The conditions noted are these: 500 IU/mL. Format: cell-based, hepatitis C virus.

As for “IFN-α: antiviral drug IFN-α 2b, constituent of the combination therapy against HCV”, the percent infected cells result by setting is: (start at 90% infected cells, within 10 days) “below 5%”; (within the first 3 days of treatment) “decreased dramatically”.
